In test [1] the target is T1, human adenosine A2A receptor (Homo sapiens, UniProt P29274).
T1 construct: host or cells: HEK-293 cells (membranes)
Kind of test: Adenosine A2A receptor binding test (3H-CGS21680 binding). The settings on record: compound at 100 nmol/L; Table 1, measured by MDS Pharma Services Inc.; read-out: Inhibitory rate for human adenosine A2A receptor binding (3H-CGS21680 binding). From the text:
Specifically, for example, human recombinant receptors are expressed in HEK-293 cells.
The inhibitory rate can be calculated by the following equation.

By UniProt entry, the sequences of proteins in these tests, tags left out.
UniProt P30542, whole entry: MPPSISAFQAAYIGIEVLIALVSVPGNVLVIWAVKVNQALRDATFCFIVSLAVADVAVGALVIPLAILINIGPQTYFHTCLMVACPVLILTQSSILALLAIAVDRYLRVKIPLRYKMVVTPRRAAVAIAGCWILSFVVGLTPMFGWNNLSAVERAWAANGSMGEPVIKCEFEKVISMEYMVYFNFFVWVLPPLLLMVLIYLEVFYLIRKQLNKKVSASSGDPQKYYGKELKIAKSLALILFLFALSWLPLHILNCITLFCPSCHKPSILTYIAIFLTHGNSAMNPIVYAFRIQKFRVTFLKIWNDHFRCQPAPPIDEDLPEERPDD

In test [2] the target is T2, human adenosine A1 receptor (Homo sapiens, UniProt P30542).
T2 construct: host or cells: CHO cells (membranes)
Put plainly: Adenosine A1 receptor binding test (3H-DPCPX binding). As to conditions: read-out: Inhibitory rate for human adenosine A1 receptor binding (3H-DPCPX binding). From the text:
Specifically, for example, human A1 receptor-expressing CHO cell membranes are used, and, as the labeled compound, for example, tritium-labeled DPCPX (1,3-dipropyl-8-cyclopentylxanthine) is used. The amount of non-specific binding can be determined by measuring the ^3H-DPCPX bound radioactivity in the presence of, for example, 100 μmol/L of R(−)-PIA((−)-N^6-2-phenylisopropyl adenosine).

For `Cc1ccc(C(=O)Nc2nc(-c3ccco3)c(C(=O)C3CCOCC3)s2)cn1` [Compound (IC)], the inhibition at 0.1 µM in test [1] is 88%.

In the case of `Cc1ncc(C(=O)Nc2nc(-c3ccco3)c(C(=O)C3CCOCC3)s2)cn1` [Compound (IB)], the inhibition at 0.1 µM turned out to be 4% in test [2] and 98% in test [1].

With `O=C(Nc1nc(-c2ccco2)c(C(=O)c2ccccn2)s1)OC1CCOCC1` [(ID)], the inhibition at 0.1 µM in test [2] stood at 28%; in test [1], 100%.

With `O=C(CN1CC=CCC1)Nc1nc(-c2ccco2)c(C(=O)C2CCOCC2)s1` [Compound (IA)], the inhibition at 0.1 µM came to 14% in test [2] and 92% in test [1].
